Molecules are shown by their SMILES. The list shows a part of the results, in another mix than the full data. Inconclusive results are not listed. Calls of active or inactive are those of the source. Calls follow the shape of the dose curve; as a rule, active = well fitted cell-killing curve with a large enough effect; inconclusive = small, poorly fitted or top-dose-only effect, or effect the other way; inactive = no such curve, though single readings can be large or run the other way.

The experiment can be described thus: Viability Counterscreen for Primary qHTS for Inhibitors of ATXN expression. Also: nearly all actives have a fitted effect of over 40% in size. As to conditions: S2 cells (HEK-293 line with an ATXN2-luciferase reporter) viability, CellTiter-Fluor protease fluorescence, 24 h. A general note: Counterscreens check selectivity or assay interference.

Turning to `CCC(=O)N(c1ccccc1)C1(COC)CCN(CCn2nnn(CC)c2=O)CC1`, the activity change, negative = cytotoxicity is, setting by setting: (at 56.7 µM (top of the series)) inactive: -19.7%; (at 114 µM (top of the series)) inactive: 20.1%.

Consider `CCC(=O)N(c1ccccc1)C1(COC)CCN(CCc2cccs2)CC1`, for which the activity change, negative = cytotoxicity reads like this: (at 56.7 µM (top of the series)) inactive: -21.4%; (at 114 µM (top of the series)) inactive: -5.24%.

Source of the values: PubChem BioAssay AID651635 (National Center for Advancing Translational Sciences (NCATS), 2012).
